Test results reported in patent US20070196865A1 (priority 2003, published 2007).

Biological target: β2AR, AT1AR, and DOR (Homo sapiens)
Details: pool of three U2OS cell lines expressing β2AR, 37° C. for 45 minutes
Experimental: The assays were carried out using various “double stable” human osteosarcoma cell (U2OS) lines. Each cell line stably expressed an arrestin-GFP conjugate of the Renilla reniformis green fluorescent protein fused in frame to the carboxyl terminus of rat β-arrestin2 as well as one of the following GPCRs: α1b adrenergic receptor (α1bAR), beta2-AR […], delta opioid (DOR) receptor, angiotensin1A receptor (AT1AR), or V2 vasopressin receptor (V2R).
Cells were plated 16-24 hours prior to the experiment at approximately 6,000 cells per well. Cells were removed from the flasks with trypsin and suspended in growth media for plating at a density of 100,000 cells per ml.
One of two methods were used to multiplex the cell lines. In one method, each cell line was dispensed independently such that the final cell number was approximately 6,000 cells per well. The dispense volume was adjusted depending on the number of cell lines used. […]
Plates were imaged for response determination on an In Cell Analyzer 3000, Gen. […] Pit or vesicle responses were quantitated using the Granularity Module of the Raven Software. That is, the In Cell Analyzer 3000 was used to quantitate the localization of the arrestin-GFP conjugate for the cells in each well. […] The average of the fluorescent intensity of the identified grains per cell in an acquired image (i.e., Fgrains) was determined for each well on the plates. […]

**Q.** [D-Pen2,D-Pen5]-enkephalin [DPDPE] was tested. Which EC50 did it give?
**A.** The EC50 was 11.2 nM.
